By IC50 is commonly meant the concentration that inhibits the measured activity by half. A lower IC50 goes with greater potency.

The chains behind the UniProt entries cited, without tags or fusion partners.
UniProt Q96KQ7, whole entry: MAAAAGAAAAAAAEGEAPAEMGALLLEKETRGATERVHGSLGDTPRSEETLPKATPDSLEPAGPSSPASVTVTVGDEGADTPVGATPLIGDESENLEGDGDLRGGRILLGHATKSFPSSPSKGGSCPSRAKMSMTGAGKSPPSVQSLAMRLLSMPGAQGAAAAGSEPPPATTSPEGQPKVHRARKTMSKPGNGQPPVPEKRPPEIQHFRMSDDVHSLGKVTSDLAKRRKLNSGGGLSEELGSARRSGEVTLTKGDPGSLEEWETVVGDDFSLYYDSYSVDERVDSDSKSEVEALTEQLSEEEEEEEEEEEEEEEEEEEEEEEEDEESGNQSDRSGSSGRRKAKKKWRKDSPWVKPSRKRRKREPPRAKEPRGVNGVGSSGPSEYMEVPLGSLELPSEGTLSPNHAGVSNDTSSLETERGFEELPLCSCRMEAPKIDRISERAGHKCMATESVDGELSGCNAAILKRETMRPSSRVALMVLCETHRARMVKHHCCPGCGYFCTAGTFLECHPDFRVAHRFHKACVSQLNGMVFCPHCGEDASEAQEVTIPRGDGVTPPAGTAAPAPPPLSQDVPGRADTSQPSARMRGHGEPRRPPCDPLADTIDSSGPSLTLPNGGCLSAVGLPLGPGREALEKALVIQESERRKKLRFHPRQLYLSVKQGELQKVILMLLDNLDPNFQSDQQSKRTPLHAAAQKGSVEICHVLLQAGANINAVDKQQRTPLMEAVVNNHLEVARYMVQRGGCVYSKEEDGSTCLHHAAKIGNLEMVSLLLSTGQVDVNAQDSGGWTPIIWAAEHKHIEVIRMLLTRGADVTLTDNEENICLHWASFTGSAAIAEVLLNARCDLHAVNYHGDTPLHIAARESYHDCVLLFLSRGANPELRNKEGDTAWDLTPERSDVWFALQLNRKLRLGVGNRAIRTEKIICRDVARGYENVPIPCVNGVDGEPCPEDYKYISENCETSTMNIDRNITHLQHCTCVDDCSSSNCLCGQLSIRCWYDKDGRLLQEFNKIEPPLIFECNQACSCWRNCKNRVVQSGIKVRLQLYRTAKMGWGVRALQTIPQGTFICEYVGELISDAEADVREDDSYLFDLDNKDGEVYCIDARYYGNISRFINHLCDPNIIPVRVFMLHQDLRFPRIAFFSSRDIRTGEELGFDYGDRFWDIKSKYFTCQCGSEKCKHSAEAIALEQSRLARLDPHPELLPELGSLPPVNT

5 compounds from paper PMC9837035 (Nature Communications, 2023) can be followed below.

The assay deals with G9a (Homo sapiens, UniProt Q96KQ7). Description: In vitro G9a methyltransferase assay (AlphaLISA-based). On the technique in general: Alpha assays give light when donor and acceptor beads are brought close together.
Setting [1] is: G9a activity, AlphaLISA-based assay, mean of three experiments.
Where [2] appears, read: Sup.Table1, three replicate values.

Values joined by “and” are separate entries in the source; they are usually repeats but may differ in a detail not shown here. Identical values can stand only once. A value given as a limit tells only on which side of the number the result lay.

For the compound `CSCC[C@H](NC(=O)c1[nH]c2c(c1C)C(=O)CC(C)(C)C2)c1nc2ccccc2[nH]1`, the half-maximal inhibitory concentration (IC50) under setting [1] is 1.4 µM; the 50% inhibitory concentration (IC50) under setting [2] was 1.42 µM and 1.51 µM and 1.35 µM.

Take `CSCCC(NC(C)=O)c1nc2ccccc2[nH]1` (stereo not shown): the IC50 under setting [1] was above 100 µM and the concentration for half-maximal inhibition (IC50) under setting [2] was above 100 µM.

For the compound `CSCCC(NC(=O)c1[nH]c2c(c1C)C(=O)CC(C)(C)C2)c1nc2ccccc2[nH]1` (racemic), the IC50 reads like this: under setting [1], 5.3 µM; under setting [2], 4.56 µM and 4.96 µM and 6.44 µM.

Consider `Cc1c(C(=O)NC(Cc2ccccc2)c2nc3ccccc3[nH]2)[nH]c2c1C(=O)CC(C)(C)C2` (stereo not shown), for which the 50% inhibitory concentration (IC50) was above 100 µM under setting [1] and above 100 µM under setting [2].

For `CSCC[C@H](NC(=O)c1[nH]nc2c1CCc1ccccc1-2)c1nc2ccccc2[nH]1`, the concentration for half-maximal inhibition (IC50) runs as follows: under setting [1], above 50 µM; under setting [2], above 50 µM.
